# Measured values taken from PubChem BioAssay AID492953 (The Scripps Research Institute Molecular Screening Center, 2010).
# Chains of the proteins cited; added tags and fusions are not shown.
# UniProt P68402, whole entry: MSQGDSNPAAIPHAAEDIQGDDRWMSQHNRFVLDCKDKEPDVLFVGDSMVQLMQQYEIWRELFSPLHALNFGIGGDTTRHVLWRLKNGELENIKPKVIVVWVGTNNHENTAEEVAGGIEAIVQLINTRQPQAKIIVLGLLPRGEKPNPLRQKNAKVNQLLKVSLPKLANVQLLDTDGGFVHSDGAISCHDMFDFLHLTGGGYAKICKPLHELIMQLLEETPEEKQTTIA
# The entries are a selection whose mix differs from that of the whole data set. Some tests of the compounds listed are not included; inactive here does not mean inactive elsewhere. Calls of active or inactive are those of the source.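 Rule for the calls: active = inhibition above the mean of all tested compounds plus 3 SD (cut at about 24% in these data); inactive = the rest.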
# Target: Platelet-activating factor acetylhydrolase IB subunit alpha2 (Homo sapiens) (UniProt P68402)
# Assay: inhibition of PAF acetylhydrolase 1b subunit 2 – biochemical, fluorescence polarization, human, primary screen (AID 492953);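 note: 0% = enzyme with DMSO and 100% = wells lacking PAFAH1B2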
# Settings: recombinant PAFAH1B2, FP-rhodamine activity probe, at 3.39 µM, active compounds read high
row,SMILES,inhibition
1,O=C(OCCN1CCCC1)C(O)(c1ccccc1)c1ccccc1,inactive: 1.67%
2,CC(C)Oc1ccc(C(=O)NCC2(N(C)C)CCCCC2)cc1,inactive: 0.46%
3,CN(C)c1cccc(C(=O)NCC2(N(C)C)CCCCC2)c1,inactive: 3.77%
4,COc1ccc(Br)c(C(=O)NCC2(N3CCCCC3)CCCCC2)c1,inactive: 7.81%
5,O=C(OC1CN2CCC1CC2)C(CO)(c1ccccc1)c1ccccc1 (stereo not given),inactive: 4.13%
6,O=C(NCC1(N2CCCCC2)CCCCC1)c1cccc(Cl)c1,inactive: 2.21%
7,COc1ccc(Cl)cc1C(=O)NCC1(N(C)C)CCCCC1,inactive: -1.59%
8,COc1cccc(C(=O)NCC2(N3CCCCC3)CCCCC2)c1,inactive: 1.95%
9,COc1cc(C(=O)NCC2(N(C)C)CCCCC2)c([N+](=O)[O-])cc1OC,inactive: 1.19%
10,CN(C)C1(CNC(=O)c2ccc(Br)cc2)CCCCC1,inactive: 2.32%
11,COc1ccc(C(=O)NCC2(N(C)C)CCCCC2)cc1,inactive: 10.2%
12,O=C(NCC1(N2CCCCC2)CCCCC1)c1cccc(Br)c1,inactive: 6.39%
13,CCN1CCCC(OC(=O)C2(O)c3ccccc3C=Cc3ccccc32)C1 (stereo not given),inactive: -6.25%
14,Cc1cc(C(=O)NCC2(N3CCCCC3)CCCCC2)ccc1[N+](=O)[O-],inactive: 6.56%
15,O=C(NCC1(N2CCCCC2)CCCCC1)c1cc(F)c(F)cc1Cl,inactive: 4.85%
16,C=CCN1CCN(CCOC(=O)C(O)(c2ccccc2)c2ccccc2)CC1,inactive: 6.31%
17,CN(C)c1ccc(C(=O)NCC2(N(C)C)CCCCC2)cc1,inactive: -0.12%
18,CN(C)C1CCCC1OC(=O)C(O)(c1ccccc1)c1ccccc1 (stereo not given),inactive: 3.98%
19,Cc1ccccc1C(=O)NCC1(N2CCCCC2)CCCCC1,inactive: 10.2%
20,Cc1ccc(C(=O)NCC2(N3CCCCC3)CCCCC2)cc1,inactive: 7.19%
21,COc1cc(SC)ccc1C(=O)NCC1(N(C)C)CCCCC1,inactive: -1.44%
22,CCN(CC)CC(C)C(C)OC(=O)C(O)(c1ccccc1)c1ccccc1 (stereo not given),inactive: 3.03%
23,CC(C)N1C(=O)CC2(CCN(CCOC(=O)C(O)(c3ccccc3)c3ccccc3)CC2)C1=O,inactive: 1.49%
24,CN1[C@@H]2CC[C@H]1CC(OC(=O)C(O)(c1ccccc1)c1ccccc1)C2 (stereo not given in full),inactive: 5.09%
25,O=C(NCC1(N2CCCCC2)CCCCC1)c1cc([N+](=O)[O-])ccc1Cl,inactive: 2.29%
